Some salts and complexes are drawn in separate pieces, as the source files them; their charges need not balance.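 Cultured in 96-well plates, cells were exposed to test compound for 48 hours across five concentrations. GI50 = concentration required for 50% inhibition of growth. Definition used: TGI = concentration required for complete inhibition of growth.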
Test system: BT-549 breast
Experiment: NCI tumour cell line growth inhibition, 48 h

Question: For `[Au+].[Au+].c1ccc([PH+](c2ccccc2)c2ccccc2)cc1.c1ccc([PH+](c2ccccc2)c2ccccc2)cc1.n1n[n-]c(-c2nnn[n-]2)n1`, which GI50 is on record?
Answer: The GI50 was 12.1 µM.

Question: What about the TGI of the same molecule?
Answer: The TGI was 24.5 µM.
